# Assay results: PubChem BioAssay AID624260 (Broad Institute, 2012)
# By UniProt entry, the sequences of proteins in these tests, tags left out. Where a name states a change or a piece, a line headed by the entry shows the natural chain unless it says otherwise.
# UniProt O96028: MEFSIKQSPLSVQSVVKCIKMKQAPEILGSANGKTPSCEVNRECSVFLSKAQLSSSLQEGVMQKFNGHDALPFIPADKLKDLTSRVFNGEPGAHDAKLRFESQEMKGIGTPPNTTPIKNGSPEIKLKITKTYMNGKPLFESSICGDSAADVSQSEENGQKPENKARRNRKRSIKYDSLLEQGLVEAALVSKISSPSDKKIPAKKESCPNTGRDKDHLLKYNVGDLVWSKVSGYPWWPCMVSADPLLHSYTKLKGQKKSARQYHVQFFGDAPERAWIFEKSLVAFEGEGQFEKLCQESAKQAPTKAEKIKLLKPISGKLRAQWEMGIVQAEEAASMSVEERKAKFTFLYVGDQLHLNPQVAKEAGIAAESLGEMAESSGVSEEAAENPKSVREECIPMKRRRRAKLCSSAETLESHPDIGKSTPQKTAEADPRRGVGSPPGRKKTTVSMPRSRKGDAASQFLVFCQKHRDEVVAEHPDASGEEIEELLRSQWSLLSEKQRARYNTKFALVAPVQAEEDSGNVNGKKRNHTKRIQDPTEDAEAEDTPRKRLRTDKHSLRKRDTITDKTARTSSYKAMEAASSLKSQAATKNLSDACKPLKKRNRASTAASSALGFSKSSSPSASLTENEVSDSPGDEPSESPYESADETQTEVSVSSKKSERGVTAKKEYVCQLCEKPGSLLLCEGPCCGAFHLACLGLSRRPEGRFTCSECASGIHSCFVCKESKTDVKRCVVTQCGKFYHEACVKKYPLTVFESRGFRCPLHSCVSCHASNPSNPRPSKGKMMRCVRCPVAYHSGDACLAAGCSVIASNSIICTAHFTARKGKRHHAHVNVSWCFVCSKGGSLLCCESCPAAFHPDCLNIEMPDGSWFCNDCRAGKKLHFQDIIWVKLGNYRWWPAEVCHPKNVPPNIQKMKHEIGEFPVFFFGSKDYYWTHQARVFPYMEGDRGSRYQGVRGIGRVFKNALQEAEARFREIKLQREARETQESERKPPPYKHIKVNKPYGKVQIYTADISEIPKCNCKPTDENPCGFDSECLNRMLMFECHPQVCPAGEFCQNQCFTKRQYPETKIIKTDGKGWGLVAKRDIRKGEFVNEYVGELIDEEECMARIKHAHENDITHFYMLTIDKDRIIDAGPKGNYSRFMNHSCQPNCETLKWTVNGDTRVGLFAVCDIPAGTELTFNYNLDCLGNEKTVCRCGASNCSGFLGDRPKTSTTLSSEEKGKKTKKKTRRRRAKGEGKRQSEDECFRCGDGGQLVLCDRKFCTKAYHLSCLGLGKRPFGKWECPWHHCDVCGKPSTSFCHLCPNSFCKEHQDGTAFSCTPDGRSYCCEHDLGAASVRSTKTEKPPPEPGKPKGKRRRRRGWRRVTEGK
# This is a selection; strong and weak results do not stand in their true shares. The source made the active and inactive calls. Rule as the data show it: active = inhibition above about 54% (passing the limit was not always enough); inconclusive = no clear call, values can overlap the other calls.
# Biological target: Histone-lysine N-methyltransferase NSD2 (Homo sapiens) (UniProt O96028)
# Assay: inhibitors of human NSD2, primary screen, biochemical, plate reader, single point (AID 624260);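 also: inhibitors reduce the monomethyl H3K36 fluorescence signal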
# Details: NSD2-SET H3K36me1 DELFIA fluorescence, at 12.5 µM, stronger effect = higher value
row,SMILES,inhibition
1,COc1ccc(CN2/C(=N/P(=O)(Oc3ccccc3)Oc3ccccc3)CC(C)=CC2C)cc1 (stereo not given),inactive: 16.7%
2,COc1ccc(CN2/C(=N\P(=O)(Oc3ccccc3)Oc3ccccc3)Cc3ccccc3C2C2CC2)cc1 (stereo not given),inactive: 5.4%
3,CN(C(=O)Cc1ccc(Cl)c(Cl)c1)C1CCCCC1N1CCCC1 (stereo not given),inactive: 0.0965%
4,CN(C(=O)Cc1ccc(Cl)c(Cl)c1)[C@H]1CCCC[C@@H]1N1CCCC1,inactive: 1.5%
5,C=CC1C=C(C)C/C(=N\P(=O)(Oc2ccccc2)Oc2ccccc2)N1Cc1ccc(OC)cc1 (stereo not given),inactive: 19.3%
